The data set can be described thus: in vivo. To be noted: mouse, ip, 400 mg/kg. The method, then:
Swiss-Webster (25-30 g) mice were used throughout. In the EATRO 110 model, groups of 100 mice were infected (10^5 trypanosomes/mouse) and the infection was allowed to develop 24 hours before commencing therapy. Animals were divided into groups of 5 before treatment. Cured animals survived >30 days beyond deaths of controls. All compounds were administered by i.p. injection.

The values below come from US4914086A, “Method for treating African human and veterinary trypanosomiases” (priority 1987, dated 1990).

The term mortality denotes the percentage killed. Read a low mortality as more survivors. As for `O=c1[nH]cnc2c([C@@H]3O[C@H](CO)[C@@H](O)[C@H]3O)c[nH]c12` [9-DINO, 7-beta-D-ribofuranosyl-4-oxo-3H, 5H-pyrrolo (3,2-d) pyrimidine], the mortality was determined as 40%.
